Values of other authors in patent US20240075093A1, “COMPOSITIONS AND METHODS OF TREATING A PI3K MEDIATED DISEASE” (VIRGINIA TECH INTELLECTUAL PROPERTIES, INC., priority 2020, published 2024).

By UniProt entry, the sequences of proteins in these tests, tags left out.
UniProt P42338, whole entry, species assumed: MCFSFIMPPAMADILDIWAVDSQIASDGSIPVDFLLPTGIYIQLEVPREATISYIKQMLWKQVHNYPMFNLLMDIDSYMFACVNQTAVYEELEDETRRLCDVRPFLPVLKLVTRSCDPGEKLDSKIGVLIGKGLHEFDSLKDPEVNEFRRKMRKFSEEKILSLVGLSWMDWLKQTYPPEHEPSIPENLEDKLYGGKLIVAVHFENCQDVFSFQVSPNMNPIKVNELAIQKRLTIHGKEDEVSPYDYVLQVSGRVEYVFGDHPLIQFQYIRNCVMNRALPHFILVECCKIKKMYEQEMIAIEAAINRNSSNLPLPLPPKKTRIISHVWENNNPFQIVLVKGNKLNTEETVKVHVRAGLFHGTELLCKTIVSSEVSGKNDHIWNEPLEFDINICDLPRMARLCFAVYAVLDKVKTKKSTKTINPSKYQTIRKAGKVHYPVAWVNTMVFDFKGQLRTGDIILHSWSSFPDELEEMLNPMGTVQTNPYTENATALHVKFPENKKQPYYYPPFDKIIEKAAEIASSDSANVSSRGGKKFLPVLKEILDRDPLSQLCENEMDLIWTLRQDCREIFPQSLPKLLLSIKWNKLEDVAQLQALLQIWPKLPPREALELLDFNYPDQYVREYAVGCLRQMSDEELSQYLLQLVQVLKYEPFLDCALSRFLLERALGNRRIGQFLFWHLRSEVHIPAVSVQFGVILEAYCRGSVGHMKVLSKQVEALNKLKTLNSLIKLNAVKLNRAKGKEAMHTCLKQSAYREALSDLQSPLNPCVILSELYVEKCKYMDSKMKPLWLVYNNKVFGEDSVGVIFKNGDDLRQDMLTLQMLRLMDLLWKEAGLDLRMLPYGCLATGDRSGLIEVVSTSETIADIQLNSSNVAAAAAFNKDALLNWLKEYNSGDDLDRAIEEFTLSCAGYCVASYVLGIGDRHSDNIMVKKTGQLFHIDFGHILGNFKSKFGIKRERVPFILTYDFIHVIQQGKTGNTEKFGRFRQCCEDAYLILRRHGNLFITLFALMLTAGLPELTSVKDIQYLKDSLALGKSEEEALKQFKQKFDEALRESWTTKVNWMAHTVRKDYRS

Molecular target: p110β (Homo sapiens, UniProt P42338)
Details: cell-free, reported; cited from earlier work

In the case of `Cc1cc(C(C)Nc2ccccc2)c2nc(N3CCOCC3)cc(=O)n2c1` (stereo not shown) [TGX-221], the IC50 is given as 8.5 nM.
